Assay results reported in paper PMC5803617 (Journal of Cachexia, Sarcopenia and Muscle, 2017).

Chains of the proteins cited; added tags and fusions are not shown.
UniProt Q91Z63, whole entry, looked up: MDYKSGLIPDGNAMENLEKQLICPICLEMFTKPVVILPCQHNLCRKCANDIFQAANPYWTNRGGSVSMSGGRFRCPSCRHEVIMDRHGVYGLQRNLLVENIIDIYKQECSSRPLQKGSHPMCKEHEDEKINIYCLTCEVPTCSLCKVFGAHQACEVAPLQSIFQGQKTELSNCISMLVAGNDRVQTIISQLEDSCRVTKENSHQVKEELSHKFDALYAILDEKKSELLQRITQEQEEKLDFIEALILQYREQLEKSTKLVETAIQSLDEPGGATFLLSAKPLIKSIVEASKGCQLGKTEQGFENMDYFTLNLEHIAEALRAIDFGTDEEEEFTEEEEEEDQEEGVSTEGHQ
UniProt P68037, whole entry: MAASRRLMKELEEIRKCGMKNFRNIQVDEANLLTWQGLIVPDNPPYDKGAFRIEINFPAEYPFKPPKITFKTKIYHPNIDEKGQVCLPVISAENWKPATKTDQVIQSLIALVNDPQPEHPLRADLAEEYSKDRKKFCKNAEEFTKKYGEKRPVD

Molecular target: MuRF1/telethonin complex co-expressed in yeast from pBridge::MuRF1/telethonin (rat) (UniProt Q91Z63)
Assay: yeast three-hybrid

- percent positive clones: 81%
Substance: UBE2L3 fused to the activation domain of GAL4 (from UniProt P68037 1-154) (enzyme)
